From ChEMBL document CHEMBL6109116, “Peripherally Restricted Fused Heterocyclic Peptidomimetic Multifunctional Opioid Agonists as Novel, Potent Analgesics” (ACS Med Chem Lett, 2025)

Legend:
[1] = test system: Mus musculus; test: Antinociceptive activity in male C57BL/6J mouse preadministered with compound for 10 mins followed by acetic acid administration and measured after 15 to 30 min by Acetic acid stretching assay (AcAS); settings: time 25-40 min
[2] = Selectivity ratio of ED50 for antinociceptive activity in male C57BL/6J mouse at 10 mg/kg, ip measured after 10 min by 55 degreeC warm-water tail-withdrawal assay to ED50 for antinociceptive activity in male C57BL/6J mouse preadministered with compound for 10 mins followed by acetic acid administration and measured after 15 to 30 min by Acetic acid stretching assay (AcAS)
[3] = Toxicity in C57BL/6J mouse assessed as increase in ambulation at 30 mg/kg, ip measured up to 1 hr; settings: in vivo
[4] = Toxicity in C57BL/6J mouse assessed as respiratory depression at 30 mg/kg, ip measured after 20 mins; settings: in vivo

In the case of `CN(C(=O)Cc1ccc(Cl)c(Cl)c1)[C@@H]1CCCC[C@H]1N1CCCC1`, the ED50 [1] is reported as 2.22 mg/kg, the Ratio ED50 [2] is reported as 8.88 and the Activity [3] is reported as “Non-toxic”. The Activity [4] was “Toxic”.
